# ChEMBL document CHEMBL4265875, “A comprehensive review on Aurora kinase: Small molecule inhibitors and clinical trial studies” (Eur J Med Chem, 2017)
# Experiments:
# Homo sapiens [1] = species on record: Homo sapiens; assay: Selectivity for Aurora A kinase (unknown origin) over Aurora B kinase (unknown origin)
# Homo sapiens [2] = species on record: Homo sapiens; assay: Selectivity for Aurora A kinase (unknown origin) over Aurora C kinase (unknown origin)
smiles,measurement,setting,value
CCN1CCN(C(=O)Cc2ccc(Nc3ncc(F)c(Nc4ccc(C(=O)Nc5ccccc5Cl)cc4)n3)cc2)CC1,Selectivity ratio,Homo sapiens [1],1000
same,Selectivity ratio,Homo sapiens [2],1000
